One assay relates to HaCaT keratinocytes. The assay is described as follows: Cytotoxicity assay (alamarBlue cell viability), HaCaT. In kind it is cell-based. The following applies: 1 hour with compound 2–100 µM, then 24 hours. On the procedure:
(§1) Cytotoxicity analyses were performed in 96-well plates (Costar, Fisher Scientific) using alamarBlue® (Invitrogen) for cell viability detection using a modified protocol as previously described.9 The HepG2 or HaCaT cells were grown at 37 °C, 5 % CO2 in DMEM10 high glucose supplemented with heat-inactivated foetal bovine sera (FBS, 10 %; Biosera Ltd) and penicillin/streptomycin (P/S, 1 %). Cells were counted using a Neubauer Improved Haemocytometer. Cells were seeded 1 day prior to treatment in 96 well plates at a concentration of 2 x 10^5 cells mL-1 in 100 µL of medium (2 x 10^4 cells/well). Empty wells were filled with 100 µL PBS. After 24 hours, cells were incubated with the compounds in a dilution series in triplicate from 2–100 µM (5 mM stock solutions in DMSO; untreated cells with DMSO as a negative control) in 50 µL of the media for 1 hour. Afterwards, 40 µL of medium was removed from each well before the addition of 90 µL of the media, followed by incubation for 24 hours at 37 °C, 5 % CO2. Then, 10 µL of alamarBlue® (Invitrogen) was added to each well before a 2 hour incubation prior to assessing cell viability using a fluorescent plate reader (Biotek; λex 560 nm, λem 600 nm).

The subject of another assay is epithelial HepG2 cells. In words: Cytotoxicity assay (alamarBlue cell viability), HepG2. The following applies: 1 hour with compound 2–100 µM, then 24 hours. It counts as cell-based. On the procedure: as §1
In assay [1] the test system is methicillin-resistant Staphylococcus aureus USA 300. The settings on record: for Reduction of antibacterial activity compared with the parent peptoid: MRSA USA300, 2a, 2b vs parent peptoids without alkyne, 6a vs 1a.

Several values for one entry are separate records, joined by “and”; a condition that tells them apart may be missing. Equal values may be shown once.

On to `C#CCNCC(=O)N(CC(=O)N(CC(=O)N(CCCCN)CC(=O)N(CC(=O)N(CC(=O)N(CCCCN)CC(=O)N(CC(=O)N(CC(=O)N(CCCCN)CC(=O)N(CC(=O)N(CC(=O)N(CCCCN)CC(=O)N(CC(=O)N(CC(N)=O)[C@@H](C)c1ccccc1)[C@@H](C)c1ccccc1)Cc1ccc(F)cc1)Cc1ccc(F)cc1)[C@@H](C)c1ccccc1)[C@@H](C)c1ccccc1)Cc1ccc(F)cc1)Cc1ccc(F)cc1)[C@@H](C)c1ccccc1)[C@@H](C)c1ccccc1` [2b, NprpNspeNspe[(NLysNpfbNpfb)(NLysNspeNspe)]2], for which the “ED50 HaCaT” value in the assay on HaCaT keratinocytes was < 20 µM and 15 µM. The “ED50 HepG2” value with epithelial HepG2 cells is < 20 µM and 17 µM. Moreover, in assay [1], the “Reduction of antibacterial activity compared with the parent peptoid” value is reported as ~2 fold. Moreover, in assay [1] (USA 300), the “MIC S. aureus (USA300)” value is 4 to 7 µM.
Turning to `C=C1NC(=O)[C@H]([C@@H](C)CC)NC(=O)[C@H](NC(=O)/C(=C/C)NC(=O)[C@@H](N)[C@@H](C)CC)CSC[C@@H](C(=O)N[C@H]2C(=O)N3CCC[C@H]3C(=O)NCC(=O)N[C@H](C(=O)N[C@@H](CCCCN)C(=O)NCCCn3cc(CNCC(=O)N(CC(=O)N(CC(=O)N(CCN)CC(=O)N(CC(=O)N(CC(=O)N(CCN)CC(=O)N(CC(=O)N(CC(=O)N(CCN)CC(=O)N(CC(=O)N(CC(=O)N(CCN)CC(=O)N(CC(=O)N(CC(N)=O)[C@@H](C)c4ccccc4)[C@@H](C)c4ccccc4)[C@@H](C)c4ccccc4)[C@@H](C)c4ccccc4)[C@@H](C)c4ccccc4)[C@@H](C)c4ccccc4)[C@@H](C)c4ccccc4)[C@@H](C)c4ccccc4)[C@@H](C)c4ccccc4)[C@@H](C)c4ccccc4)nn3)CS[C@H]2C)NC(=O)[C@H](CC(C)C)NC1=O` [6a, Nisin[1,2,3,4,5,6,7,8,9, 10, 11, 12]-NspeNspe(NaeNspeNspe)4], the “ED50 HaCaT” value in the assay with HaCaT keratinocytes was 22 µM and 24 µM. Besides, in the assay with epithelial HepG2 cells, the “ED50 HepG2” value was 15 µM. In assay [1], the “Reduction of antibacterial activity compared with the parent peptoid” value is given as “approximately five-fold less active”.
For the compound `C=C1NC(=O)[C@H]([C@@H](C)CC)NC(=O)[C@H](NC(=O)/C(=C/C)NC(=O)[C@@H](N)[C@@H](C)CC)CSC[C@@H](C(=O)N[C@H]2C(=O)N3CCC[C@H]3C(=O)NCC(=O)N[C@H](C(=O)N[C@@H](CCCCN)C(=O)NCCCn3cc(CNCC(=O)N(CC(=O)N(CC(=O)N(CCCCN)CC(=O)N(CC(=O)N(CC(=O)N(CCCCN)CC(=O)N(CC(=O)N(CC(=O)N(CCCCN)CC(=O)N(CC(=O)N(CC(=O)N(CCCCN)CC(=O)N(CC(=O)N(CC(N)=O)[C@@H](C)c4ccccc4)[C@@H](C)c4ccccc4)Cc4ccc(F)cc4)Cc4ccc(F)cc4)[C@@H](C)c4ccccc4)[C@@H](C)c4ccccc4)Cc4ccc(F)cc4)Cc4ccc(F)cc4)[C@@H](C)c4ccccc4)[C@@H](C)c4ccccc4)nn3)CS[C@H]2C)NC(=O)[C@H](CC(C)C)NC1=O` [6b, Nisin[1,2,3,4,5,6,7,8,9, 10, 11, 12]-NspeNspe[(NLysNpfbNpfb)(NLysNspeNspe)]2], the “ED50 HaCaT” value in the assay on HaCaT keratinocytes was 24 µM and 22 µM. Further, in the assay with epithelial HepG2 cells, the “ED50 HepG2” value is listed as 23 µM.

Source of the values: PMC6099617, “Synthesis of Antibacterial Nisin–Peptoid Hybrids Using Click Methodology” (Molecules : A Journal of Synthetic Chemistry and Natural …, 2018).
